For 33 compounds, IC50 results are on record in patent US9694016B2 (Novartis AG, priority 2013, dated 2017).

The chains behind the UniProt entries cited, without tags or fusion partners.
UniProt P04049, whole entry Y340E/Y341E: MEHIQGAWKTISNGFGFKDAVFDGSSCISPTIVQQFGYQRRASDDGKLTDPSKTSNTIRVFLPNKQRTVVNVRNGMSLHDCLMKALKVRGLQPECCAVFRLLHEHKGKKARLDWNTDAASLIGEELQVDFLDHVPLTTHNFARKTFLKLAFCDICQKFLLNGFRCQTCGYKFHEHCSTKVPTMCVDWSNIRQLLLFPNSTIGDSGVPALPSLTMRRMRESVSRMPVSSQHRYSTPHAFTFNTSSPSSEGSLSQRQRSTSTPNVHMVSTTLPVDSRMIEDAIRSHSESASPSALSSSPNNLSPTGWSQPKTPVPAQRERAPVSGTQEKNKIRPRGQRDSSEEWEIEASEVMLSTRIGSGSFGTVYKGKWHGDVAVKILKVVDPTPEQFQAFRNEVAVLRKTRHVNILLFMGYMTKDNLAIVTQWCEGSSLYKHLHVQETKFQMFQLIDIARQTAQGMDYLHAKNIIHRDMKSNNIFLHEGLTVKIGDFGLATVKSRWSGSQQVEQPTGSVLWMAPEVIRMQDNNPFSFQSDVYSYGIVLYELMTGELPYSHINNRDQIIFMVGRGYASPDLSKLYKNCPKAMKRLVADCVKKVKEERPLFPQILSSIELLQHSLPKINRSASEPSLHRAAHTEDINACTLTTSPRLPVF

In one test the target is C-Raf FL (full-length C-Raf protein, Y340E and Y341E activating mutations) (Homo sapiens (Human), UniProt P04049, Y340E/Y341E). It counts as biochemical. Particulars: AlphaScreen, 60 min pre-incubation, 1 hour reaction; read-out: c-Raf FL IC-50. A general note: Bead proximity is the source of the signal in Alpha formats.
On to `Cc1ccc(NC(=O)c2cc(CN)cc(C(F)(F)F)c2)cc1-c1cc(N2CCOCC2)c(=O)n(C)c1` [Example 470, 3-(aminomethyl)-N-(4-methyl-3-(1-methyl-5-morpholino-6-oxo-1,6-dihydropyridin-3-yl)phenyl)-5-(trifluoromethyl)benzamide], for which the IC50 was determined as 1 nM.

With `Cc1ccc(NC(=O)c2ccnc(C(C)(F)F)c2)cc1-c1cc(N2CCOCC2)c2nccn2n1` [Example 843, 2-(1,1-difluoroethyl)-N-(4-methyl-3-(8-morpholinoimidazo[1,2-b]pyridazin-6-yl)phenyl)isonicotinamide], the IC50 was found to be 0.2 nM.

As to `Cc1ccc(C(=O)Nc2ccc(CN)c(C(F)(F)F)c2)cc1-c1cc(N2CCOCC2)c(=O)n(C)c1` [Example 467, N-(4-(aminomethyl)-3-(trifluoromethyl)phenyl)-4-methyl-3-(1-methyl-5-morpholino-6-oxo-1,6-dihydropyridin-3-yl)benzamide], the IC50 was 2.4 nM.

As for `Cc1ccc(NC(=O)c2cnnc(C(F)(F)F)c2)cc1-c1cc(N2CCOCC2)n(C)c(=O)c1` [Example 495, N-(4-methyl-3-(1-methyl-6-morpholino-2-oxo-1,2-dihydropyridin-4-yl)phenyl)-6-(trifluoromethyl)pyridazine-4-carboxamide], the IC50 was determined as 1 nM.

As for `Cc1ccc(NC(=O)c2ccc(CO)c(C(F)(F)F)c2)cc1-c1cc(N2CCOCC2)c(=O)n(C)c1` [Example 462, 4-(hydroxymethyl)-N-(4-methyl-3-(1-methyl-5-morpholino-6-oxo-1,6-dihydropyridin-3-yl)phenyl)-3-(trifluoromethyl)benzamide], the IC50 turned out to be 0.7 nM.

`Cc1ccc(NC(=O)c2ccnc(N(C)CCO)c2)cc1-c1cc(N2CCOCC2)c(=O)n(C)c1` [Example 456]: the IC50 is 0.8 nM.

As for `CCOc1ncc(-c2cc(NC(=O)c3cccc(C(F)(F)F)c3)cnc2C)nc1N1CCOCC1` [Example 539, N-(5-(5-ethoxy-6-morpholinopyrazin-2-yl)-6-methylpyridin-3-yl)-3-(trifluoromethyl)benzamide], the IC50 turned out to be 0.8 nM.

Consider `Cc1ccc(NC(=O)c2ccnc(S(C)(=O)=O)c2)cc1-c1cc(N2CCOCC2)n(C)c(=O)c1` [Example 474, N-(4-methyl-3-(1-methyl-6-morpholino-2-oxo-1,2-dihydropyridin-4-yl)phenyl)-2-(methylsulfonyl)isonicotinamide], for which the IC50 worked out at 0.6 nM.

On to `Cc1ncc(NC(=O)c2ccnc(C(C)(C)F)c2)cc1-c1cncc(N2CCOCC2)n1` [Example 534, 2-(2-fluoropropan-2-yl)-N-(6-methyl-5-(6-morpholinopyrazin-2-yl)pyridin-3-yl)isonicotinamide], for which the IC50 stood at 1.1 nM.

`Cc1ccc(NC(=O)c2ccnc(C(C)(C)C#N)c2)cc1-c1cc(C2CCOCC2)c(=O)n(C)n1` [Example 675, 2-(2-cyanopropan-2-yl)-N-(4-methyl-3-(1-methyl-6-oxo-5-(tetrahydro-2H-pyran-4-yl)-1,6-dihydropyridazin-3-yl)phenyl)isonicotinamide]: the IC50 was 1.4 nM.

`Cc1ccc(NC(=O)c2ccnc(S(C)(=O)=O)c2)cc1-c1cc(N2CCOCC2)n2nccc2n1` [Example 806]: the IC50 is 0.6 nM.

Still in this test, the particulars now being: AlphaScreen, 60 min pre-incubation, reaction 1 hour at room temperature; read-out: c-Raf FL IC-50.
Take `COc1nnc(-c2cc(C(=O)Nc3ccnc(C(C)(F)F)c3)ccc2C)cc1N1CCOCC1` [Example 1019, N-(2-(1,1-difluoroethyl)pyridin-4-yl)-3-(6-methoxy-5-morpholinopyridazin-3-yl)-4-methylbenzamide]: the IC50 came to 0.38 nM.

For the compound `Cc1ncc(NC(=O)c2ccnc(C(C)(F)F)c2)cc1-c1cc(NCCO)nc(N2CCOC[C@H]2C)c1` [Example 1139, (R)-2-(1,1-difluoroethyl)-N-(2′-((2-hydroxyethyl)amino)-2-methyl-6′-(3-methylmorpholino)-[3,4′-bipyridin]-5-yl)isonicotinamide], the IC50 stood at 2.8 nM.

For `CCOc1cc(-c2cc(NC(=O)c3ccnc(C(F)F)c3)cnc2C)cc(N2CCOCC2)n1` [Example 1146, 2-(difluoromethyl)-N-(2′-ethoxy-2-methyl-6′-morpholino-[3,4′-bipyridin]-5-yl)isonicotinamide], the IC50 came to 0.32 nM.

Take `Cc1ccc(C(=O)Nc2cccc(C(F)(F)F)c2)cc1-c1nc2c(c(N3CCOCC3)n1)CNC2` [Example 889, 4-methyl-3-(4-morpholino-6,7-dihydro-5H-pyrrolo[3,4-d]pyrimidin-2-yl)-N-(3-(trifluoromethyl)phenyl)benzamide]: the IC50 worked out at 0.6 nM.

`Cc1ccc(NC(=O)c2cncc(C(F)(F)F)c2)cc1-c1cnc(OCCO)c(N2CCOCC2)c1` [Example 1001, N-(3-(6-(2-hydroxyethoxy)-5-morpholinopyridin-3-yl)-4-methylphenyl)-5-(trifluoromethyl)nicotinamide]: the IC50 turned out to be 0.31 nM.

On to `CCn1cc(C(=O)Nc2cnc(C)c(-c3cc(N4CCOCC4)nc(N4CCOCC4)c3)c2)cc(C(F)(F)F)c1=O` [Example 1125, 1-ethyl-N-(2-methyl-2′,6′-dimorpholino-[3,4′-bipyridin]-5-yl)-6-oxo-5-(trifluoromethyl)-1,6-dihydropyridine-3-carboxamide], for which the IC50 is 0.93 nM.

With `Cc1ccc(NC(=O)c2cc(C(C)(C)C#N)ccn2)cc1-c1cc(N2CCOCC2)c(=O)n(C)c1` [Example 903, 4-(2-cyanopropan-2-yl)-N-(4-methyl-3-(1-methyl-5-morpholino-6-oxo-1,6-dihydropyridin-3-yl)phenyl)picolinamide], the IC50 is 0.82 nM.

Take `Cc1ncc(NC(=O)c2ccnc(C(F)(F)F)c2)cc1-c1cc(NCCO)nc(N2CCOCC2)c1` [Example 1040, N-(2′-((2-hydroxyethyl)amino)-2-methyl-6′-morpholino-[3,4′-bipyridin]-5-yl)-2-(trifluoromethyl)isonicotinamide]: the IC50 was 0.68 nM.

Turning to `Cc1ncc(NC(=O)c2cccc(C(O)C(F)(F)F)c2)cc1-c1cnc(OC2CCOCC2)c(N2CCOCC2)c1` (stereo not drawn) [Example 977, N-(2-methyl-5′-morpholino-6′-((tetrahydro-2H-pyran-4-yl)oxy)[3,3′-bipyridin]-5-yl)-3-(2,2,2-trifluoro-1-hydroxyethyl)benzamide], the IC50 worked out at 1.77 nM.

On to `Cc1ncc(NC(=O)c2cccc(C(F)(F)F)c2)cc1-c1cnc(O[C@@H](C)CO)c(N2CCOCC2)c1` [Example 985, (S)—N-(6′-((1-hydroxypropan-2-yl)oxy)-2-methyl-5′-morpholino-[3,3′-bipyridin]-5-yl)-3-(trifluoromethyl)benzamide], for which the IC50 amounted to 0.6 nM.

With `Cc1ccc(NC(=O)c2ccnc(C(F)(F)F)c2)cc1-c1cc(N2CCOCC2)nc(N2CCOCC2)c1` [Example 1112, N-(3-(2,6-dimorpholinopyridin-4-yl)-4-methylphenyl)-2-(trifluoromethyl)isonicotinamide], the IC50 is 0.24 nM.

For `Cc1ncc(NC(=O)c2ccnc(C(F)(F)F)c2)cc1-c1cnc(OC(F)F)c(N2CCOCC2)c1` [Example 978], the IC50 worked out at 0.74 nM.

Turning to `Cc1ncc(NC(=O)c2cccc(C(F)F)c2)cc1-c1cc(N2CCOCC2)nc(N2CC(O)C2)c1` [Example 1079, 3-(difluoromethyl)-N-(2′-(3-hydroxyazetidin-1-yl)-2-methyl-6′-morpholino-[3,4′-bipyridin]-5-yl)benzamide], the IC50 turned out to be 1.17 nM.

With `Cc1ncc(NC(=O)c2ccnc(C(C)(C)C#N)c2)cc1-c1cc(N2CCOCC2)c(S(C)(=O)=O)nn1` [Example 924, 2-(2-cyanopropan-2-yl)-N-(6-methyl-5-(6-(methylsulfonyl)-5-morpholinopyridazin-3-yl)pyridin-3-yl)isonicotinamide], the IC50 came out at 11 nM.

On to `Cc1ccc(NC(=O)c2ccnc(C(F)(F)F)c2)cc1-c1cc(N2CCOCC2)nc(N2CC(O)C2)c1` [Example 1060, N-(3-(2-(3-hydroxyazetidin-1-yl)-6-morpholinopyridin-4-yl)-4-methylphenyl)-2-(trifluoromethyl)isonicotinamide], for which the IC50 is 0.95 nM.

The same test, now with this note: Table 2; AlphaScreen, 1 hour reaction; read-out: c-Raf FL IC-50.
Take `Cc1ccc(NC(=O)c2cccc(C(F)F)c2)cc1-c1ccnc(N2CCOCC2)c1` [Example 75, 3-(difluoromethyl)-N-(4-methyl-3-(2-morpholinopyridin-4-yl)phenyl)benzamide]: the IC50 turned out to be 0.06 nM.

For `Cc1ccc(NC(=O)c2ccnc(C(C)(C)F)c2)cc1-c1cc(N2CCOCC2)c(=O)n(C)c1` [Example 355, 2-(2-fluoropropan-2-yl)-N-(4-methyl-3-(1-methyl-5-morpholino-6-oxo-1,6-dihydropyridin-3-yl)phenyl)isonicotinamide], the IC50 came out at 0.6 nM.

Take `CCOc1ncc(-c2cc(NC(=O)c3ccnc(C4CC4)c3)cnc2C)cc1N1CCOCC1` [Example 254, 2-cyclopropyl-N-(6′-ethoxy-2-methyl-5′-morpholino-[3,3′-bipyridin]-5-yl)isonicotinamide]: the IC50 stood at 0.5 nM.

For the compound `Cc1ncc(NC(=O)c2cccc(C(F)(F)F)c2)cc1-c1cc(N2CCOCC2)c(=O)n(C)c1` [Example 138, N-(1′,2-dimethyl-5′-morpholino-6′-oxo-1′,6′-dihydro-[3,3′-bipyridin]-5-yl)-3-(trifluoromethyl)benzamide], the IC50 worked out at 0.8 nM.

For `Cn1cc(-c2cc(NC(=O)c3cccc(C(F)(F)F)c3)cnc2Cl)cc(N2CCOCC2)c1=O` [Example 407, N-(2-chloro-1′-methyl-5′-morpholino-6′-oxo-1′,6′-dihydro-[3,3-bipyridin]-5-yl)-3-(trifluoromethyl)benzamide], the IC50 was found to be 0.5 nM.

With `Cc1ccc(NC(=O)c2cccc(C(F)(F)F)c2)cc1-c1cc(N2CCOC[C@H]2CO)nc(N2CCOCC2)n1` [Example 48, (R)—N-(3-(6-(3-(hydroxymethyl)morpholino)-2-morpholinopyrimidin-4-yl)-4-methylphenyl)-3-(trifluoromethyl)benzamide], the IC50 worked out at 0.3 nM.

Turning to `Cc1ccc(NC(=O)c2ccnc(C(C)(C)O)c2)cc1-c1cnc(OC(F)F)c(N2CCOCC2)c1` [Example 226, N-(3-(6-(difluoromethoxy)-5-morpholinopyridin-3-yl)-4-methylphenyl)-2-(2-hydroxypropan-2-yl)isonicotinamide], the IC50 is 0.7 nM.
